Test results: ChEMBL document CHEMBL1149991, “Benzofuran based angiotensin II antagonists related to GR117289: enhancement of potency in vitro and oral activity” (Bioorg Med Chem Lett, 1993)

Sequences of proteins named here, by UniProt entry; tags and fusion partners are left off.
UniProt P34976, whole entry: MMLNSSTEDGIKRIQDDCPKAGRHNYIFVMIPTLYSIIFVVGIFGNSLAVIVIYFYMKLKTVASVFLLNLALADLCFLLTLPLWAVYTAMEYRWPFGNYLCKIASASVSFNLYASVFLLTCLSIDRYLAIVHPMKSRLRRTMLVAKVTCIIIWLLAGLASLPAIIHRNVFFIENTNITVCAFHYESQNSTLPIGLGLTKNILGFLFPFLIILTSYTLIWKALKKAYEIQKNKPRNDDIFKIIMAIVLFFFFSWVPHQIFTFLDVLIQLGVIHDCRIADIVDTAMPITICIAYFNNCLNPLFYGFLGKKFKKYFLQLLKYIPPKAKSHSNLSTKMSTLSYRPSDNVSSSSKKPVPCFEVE

Molecular target: Type-1 angiotensin II receptor (Oryctolagus cuniculus) (UniProt P34976)
Assay: In vitro for its antagonistic activity against angiotensin II type 1 receptor in Rabbit Aorta
Assay type: functional, tissue-based

pKB: 9.8
Structure (SMILES): CCCCc1nc(Cl)c(C(=O)O)n1Cc1ccc2oc(-c3ccccc3-c3nnn[nH]3)c(Br)c2c1
